The values below come from US20250376468A1, “PYRAZOLO[1,5-a]PYRIDINE DERIVATIVES FOR TREATING TRPM3-MEDIATED DISORDERS” (Katholieke Universiteit Leuven, priority 2022, published 2025).

By UniProt entry, the sequences of proteins in these tests, tags left out. Residues count along the entry.
UniProt J9SQF3, 1-1709 isoform 12: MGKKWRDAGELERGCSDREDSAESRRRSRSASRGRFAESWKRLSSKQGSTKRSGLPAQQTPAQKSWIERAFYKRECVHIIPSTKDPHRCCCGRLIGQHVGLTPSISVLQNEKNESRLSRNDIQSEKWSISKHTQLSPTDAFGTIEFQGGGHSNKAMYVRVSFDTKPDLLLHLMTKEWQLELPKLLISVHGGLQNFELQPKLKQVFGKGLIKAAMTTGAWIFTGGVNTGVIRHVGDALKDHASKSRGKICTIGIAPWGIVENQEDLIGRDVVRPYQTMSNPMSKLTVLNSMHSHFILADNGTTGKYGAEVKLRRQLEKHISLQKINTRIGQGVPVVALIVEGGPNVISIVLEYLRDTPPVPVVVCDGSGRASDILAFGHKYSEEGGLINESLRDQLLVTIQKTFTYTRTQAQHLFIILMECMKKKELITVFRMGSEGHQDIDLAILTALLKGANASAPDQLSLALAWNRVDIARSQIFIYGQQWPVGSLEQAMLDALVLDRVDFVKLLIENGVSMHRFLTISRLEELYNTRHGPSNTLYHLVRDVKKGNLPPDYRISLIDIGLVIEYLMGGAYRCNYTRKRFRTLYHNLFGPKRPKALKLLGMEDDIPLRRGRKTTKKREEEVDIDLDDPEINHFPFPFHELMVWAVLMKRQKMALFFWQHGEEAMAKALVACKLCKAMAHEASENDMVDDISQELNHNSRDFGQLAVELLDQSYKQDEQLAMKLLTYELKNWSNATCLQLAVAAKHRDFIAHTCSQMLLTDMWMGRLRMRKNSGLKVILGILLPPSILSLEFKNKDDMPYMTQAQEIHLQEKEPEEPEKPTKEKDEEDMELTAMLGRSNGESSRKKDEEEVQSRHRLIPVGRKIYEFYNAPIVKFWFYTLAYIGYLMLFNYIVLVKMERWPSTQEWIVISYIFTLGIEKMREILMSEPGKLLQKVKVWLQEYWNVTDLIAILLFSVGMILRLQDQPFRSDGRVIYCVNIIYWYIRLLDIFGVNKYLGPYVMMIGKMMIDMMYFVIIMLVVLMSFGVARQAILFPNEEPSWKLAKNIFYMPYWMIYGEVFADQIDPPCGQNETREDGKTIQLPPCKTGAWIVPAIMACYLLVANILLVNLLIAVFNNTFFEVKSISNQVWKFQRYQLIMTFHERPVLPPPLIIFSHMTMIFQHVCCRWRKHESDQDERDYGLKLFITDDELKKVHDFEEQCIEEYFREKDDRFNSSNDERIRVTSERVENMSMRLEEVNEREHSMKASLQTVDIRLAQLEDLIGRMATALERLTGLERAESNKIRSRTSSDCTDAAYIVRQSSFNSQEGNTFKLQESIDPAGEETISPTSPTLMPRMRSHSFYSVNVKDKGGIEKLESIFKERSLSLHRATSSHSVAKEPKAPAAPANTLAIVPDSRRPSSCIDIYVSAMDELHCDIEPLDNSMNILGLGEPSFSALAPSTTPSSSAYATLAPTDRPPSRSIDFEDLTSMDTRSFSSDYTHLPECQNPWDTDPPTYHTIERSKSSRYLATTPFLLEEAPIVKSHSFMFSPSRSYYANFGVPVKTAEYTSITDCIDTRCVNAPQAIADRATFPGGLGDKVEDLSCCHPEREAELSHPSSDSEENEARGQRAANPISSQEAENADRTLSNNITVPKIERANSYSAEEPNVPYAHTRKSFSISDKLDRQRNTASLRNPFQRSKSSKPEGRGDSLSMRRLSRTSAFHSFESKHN

The assay deals with mouse TRPM3α2 (mTRPM3) ion channel (Mus musculus, UniProt J9SQF3). Kind of assay: TRPM3 ion channel driven Ca2+ uptake, Fluo-4 AM assay, stimulated with pregnenolone sulfate (50 μM). The conditions noted are these: TRPM3 overexpressing flip-in HEK293 cells, PS 50 μM, 2.4 mM Ca2+. The procedure: In order to monitor the inhibition of the mouse TRPM3α2 (mTRPM3) ion channel by the compounds of the invention, a cellular system making use of an mTRPM3alpha2 or hTRPM3 overexpressing cell line (flip-in HEK293) was used. The TRPM3 channel was stimulated/opened with Pregnenolone sulfate (PS) (50 μM) which results in Ca^2+ influx.
For mTRPM3, the intracellular Ca^2+ was measured with a Calcium responsive dye, Fluor-4 AM ester (Invitrogen). Cells were cultured until a confluence of 80-90%, washed with Versene (Invitrogen) and detached from the surface by a short incubation with 0.05% Trypsin (Invitrogen). The […] was stopped by the addition of complete cell culture medium (DMEM, glutamax, 10% FCS, NEAA, Pen-Strep). Cells were collected and resuspended in Krebs buffer without Calcium at RT.
Prior the cell seeding (±2000 cells/well into a black, 384 well plate (Greiner)) the diluted compound was added in the assay plate, together with the PS dissolved in Krebs buffer containing Calcium. […] Directly after cell addition the plates were read on an Envision fluorescence reader (Perkin Elmer) by an Excitation of 485 nm and emission at 535 nm.
Channel inhibition was calculated compared to a non-PS stimulated control versus a condition stimulated with PS (50 μM) with vehicle. The ability of the compounds of the invention to inhibit this activity was determined as: Percentage inhibition=[1−((RFU determined for sample with test compound present−RFU determined for sample with positive control inhibitor) divided by (RFU determined in the presence of vehicle−RFU determined for sample with positive control inhibitor))]*100.
The activities of the Example compounds cpd 001-091 tested are depicted in the table below. All tested compounds show an activity in the Fluo-4 AM assay. The activity ranges A, B and C refer to IC50 values in the Fluo-4 AM assay as follows: “A”: IC50<1 μM; “B”: 1 μM≤IC50≤20 μM and “C”: IC50>20 μM.

Consider `Cc1cccc(F)c1COc1ccn2nc(C)c(C(=O)NC(C)(CO)C(N)=O)c2c1` (single isomer, unassigned), for which the IC50 is < 1 µM.
In the case of `CNC(=O)C(CO)NC(=O)c1c(C)nn2ccc(OCc3ccccc3F)cc12` (single isomer, unassigned) [Cpd 009 - En1] it was 1 to 20 µM.
With `Cc1nn2ccc(OCC3CC3)cc2c1C(=O)NC(C)(CO)C(N)=O` (single isomer, unassigned) [Cpd 022 - En2], the IC50 was > 20 µM.
With `Cc1nn2ccc(OCc3ccccn3)cc2c1C(=O)NC(CO)c1ccccn1` (single isomer, unassigned) [Cpd 059 - En1], the IC50 is > 20 µM.
In the case of `Cc1nn2ccc(OCc3c(F)cccc3F)cc2c1C(=O)NC(C)(CO)C(N)=O` (single isomer, unassigned) [Cpd 032 - En2], the IC50 lay within 1 to 20 µM.
In turn, `Cc1nn2ccc(OCc3ccccn3)cc2c1C(=O)NC1CNCC1C(F)(F)F` (single isomer, unassigned) [Cpd 082 - En1] had an IC50 of 1 to 20 µM.
Consider `CC(=O)C(C)(CO)NC(=O)c1c(C)nn2ccc(OCc3ccccn3)cc12` (single isomer, unassigned), for which the IC50 lay within 1 to 20 µM.
For `Cc1nn2ccc(OCc3ccccn3)cc2c1C(=O)NC1CCNC1` (single isomer, unassigned) [Cpd 054 - En2], the IC50 lay in the range of 1 to 20 µM.
In the case of `Cc1nn2ccc(OCc3cccc(F)c3F)cc2c1C(=O)NC(C)(CO)C(N)=O` (single isomer, unassigned), the IC50 lay in the range of 1 to 20 µM.
Next, `Cc1ncsc1COc1ccn2nc(C)c(C(=O)NC3CNCC(F)(F)C3)c2c1` (single isomer, unassigned) [Cpd 051 - En2]: 1 to 20 µM; `Cc1nn2ccc(OCc3ccccn3)cc2c1C(=O)NC(CO)c1ccc(F)cc1` (single isomer, unassigned): > 20 µM; `Cc1ccc(COc2ccn3nc(C)c(C(=O)NC(C)(CO)C(N)=O)c3c2)cn1` (single isomer, unassigned) [Cpd 021 - En1]: 1 to 20 µM.
In the case of `Cc1cccc(COc2ccn3nc(C)c(C(=O)NC(C)(CO)C(N)=O)c3c2)c1F` (single isomer, unassigned) it was < 1 µM.
Next, `Cc1nn2ccc(OCc3ccccn3)cc2c1C(=O)NC(CCO)c1ccc(F)cc1` (single isomer, unassigned): > 20 µM.
As for `Cc1nn2ccc(OCc3ccccn3)cc2c1C(=O)NC(CO)Cc1ncccn1` (single isomer, unassigned), the IC50 is > 20 µM.
On to `Cc1nn2ccc(OCc3c(F)cccc3F)cc2c1C(=O)NC(C)(CO)C(N)=O` (single isomer, unassigned) [Cpd 032 - En1], for which the IC50 is < 1 µM.
Next, `Cc1ccc(COc2ccn3nc(C)c(C(=O)NC(C)(CO)C(N)=O)c3c2)c(F)c1` (single isomer, unassigned) [Cpd 028 - En2]: 1 to 20 µM; `Cc1nn2ccc(OCc3ccccn3)cc2c1C(=O)NC(C)(CO)c1ccn(C)n1` (single isomer, unassigned): > 20 µM; `Cc1nn2ccc(OCC3CC3)cc2c1C(=O)NC(C)(CO)C(N)=O` (single isomer, unassigned) [Cpd 022 - En1]: < 1 µM.
For `Cc1nn2ccc(OCc3ccccc3)cc2c1C(=O)NC(C)(CO)C(N)=O` (single isomer, unassigned) [Cpd 016 - En2], the IC50 was 1 to 20 µM.
On to `Cc1nn2ccc(OCc3ccccn3)cc2c1C(=O)NC1CCNC1` (single isomer, unassigned) [Cpd 054 - En1], for which the IC50 was > 20 µM.
In the case of `Cc1nn2ccc(OCc3ccccc3C(F)F)cc2c1C(=O)NC(C)(CO)C(N)=O` (single isomer, unassigned) [Cpd 023 - En1] it was < 1 µM; in that of `Cc1nn2ccc(OCc3ccccn3)cc2c1C(=O)NC(CO)c1ccccn1` (single isomer, unassigned) [Cpd 059 - En2], 1 to 20 µM; in that of `Cc1nn2ccc(OCc3ccccn3)cc2c1C(=O)NC(CO)C1CCOCC1` (single isomer, unassigned), > 20 µM.
Take `Cc1nn2ccc(OCc3ccccn3)cc2c1C(=O)NC1CNCC1C(F)(F)F` (single isomer, unassigned) [Cpd 082 - En2]: the IC50 was < 1 µM.
For `Cc1nn2ccc(OCc3ccccc3F)cc2c1C(=O)NC(C)(CO)CC(F)F` (single isomer, unassigned) [Cpd 025 - En2], the IC50 was < 1 µM.
Turning to `Cc1ncsc1COc1ccn2nc(C)c(C(=O)NC3CCNC3)c2c1` (single isomer, unassigned), the IC50 was > 20 µM.
As for `Cc1ncsc1COc1ccn2nc(C)c(C(=O)NC3CNCC(F)(F)C3)c2c1` (single isomer, unassigned) [Cpd 051 - En1], the IC50 is > 20 µM.
`Cc1ccc(COc2ccn3nc(C)c(C(=O)NC(C)(CO)C(N)=O)c3c2)c(F)c1` (single isomer, unassigned) [Cpd 028 - En1]: the IC50 is < 1 µM.
Take `Cc1nn2ccc(OCc3ccccn3)cc2c1C(=O)NC1(CO)CCNC1=O` (single isomer, unassigned) [Cpd 091 - En1]: the IC50 was < 1 µM.
`Cc1nn2ccc(OCc3ccccn3)cc2c1C(=O)NC(CO)c1ccn(C)n1` (single isomer, unassigned) [Cpd 087 - En2] displayed an IC50 of 1 to 20 µM.
With `Cc1nn2ccc(OCc3cc(F)ccc3F)cc2c1C(=O)NC(C)(CO)C(N)=O` (single isomer, unassigned) [Cpd 030 - En1], the IC50 was < 1 µM.
`Cc1nn2ccc(OCc3ccccn3)cc2c1C(=O)NC(CO)CC(F)(F)F` (single isomer, unassigned) [Cpd 062 - En1]: the IC50 was 1 to 20 µM.
In turn, `Cc1nn2ccc(OCc3ccccn3)cc2c1C(=O)NC(CO)Cc1ccccn1` (single isomer, unassigned) [Cpd 088 - En1] had an IC50 of 1 to 20 µM.
Regarding `Cc1nn2ccc(OCc3ccccn3)cc2c1C(=O)NC(CO)Cc1ccccn1` (single isomer, unassigned) [Cpd 088 - En2], the IC50 is > 20 µM.
In the case of `Cc1nn2ccc(OCC(F)F)cc2c1C(=O)NC(C)(CO)C(N)=O` (single isomer, unassigned) [Cpd 015 - En2] it was > 20 µM.
On to `Cc1nn2ccc(OCc3ccccc3)cc2c1C(=O)NC(C)(CO)C(N)=O` (single isomer, unassigned) [Cpd 016 - En1], for which the IC50 was < 1 µM.
Molecule `Cc1nn2ccc(OCc3ccccc3F)cc2c1C(=O)NC(C)(CO)C(=O)N(C)C` (single isomer, unassigned) [Cpd 017 - En1] returned an IC50 of 1 to 20 µM.
In the case of `Cc1nn2ccc(OCc3ccccn3)cc2c1C(=O)NC(CO)CC(F)F` (single isomer, unassigned) [Cpd 064 - En1] it was 1 to 20 µM; in that of `Cc1nn2ccc(OCc3ccc(F)cc3F)cc2c1C(=O)NC(C)(CO)C(N)=O` (single isomer, unassigned) [Cpd 026 - En1], < 1 µM; in that of `Cc1nn2ccc(OCc3ccccn3)cc2c1C(=O)NC1(CO)CCNC1=O` (single isomer, unassigned) [Cpd 091 - En2], > 20 µM.
In the case of `Cc1nn2ccc(OCc3ccc(F)cc3F)cc2c1C(=O)NC(C)(CO)C(N)=O` (single isomer, unassigned) [Cpd 026 - En2] it was 1 to 20 µM; in that of `Cc1nn2ccc(OCc3ccccc3C(F)F)cc2c1C(=O)NC(C)(CO)C(N)=O` (single isomer, unassigned) [Cpd 023 - En2], 1 to 20 µM.
The molecule `Cc1ncsc1COc1ccn2nc(C)c(C(=O)NC(C)(CO)CC(F)F)c2c1` (single isomer, unassigned) [Cpd 037 - En1] returned an IC50 of 1 to 20 µM.
In the case of `Cc1nn2ccc(OCc3ccccn3)cc2c1C(=O)NC(CO)CC(F)F` (single isomer, unassigned) [Cpd 064 - En2] it was > 20 µM; in that of `Cc1nn2ccc(OCc3ccccn3)cc2c1C(=O)NC(CO)C(C(F)(F)F)C(F)(F)F` (single isomer, unassigned) [Cpd 063 - En1], > 20 µM.
On to `Cc1ncsc1COc1ccn2nc(C)c(C(=O)NC3CNCCC3(F)F)c2c1` (single isomer, unassigned) [Cpd 049 - En2], for which the IC50 was > 20 µM.
For the molecule `Cc1ncsc1COc1ccn2nc(C)c(C(=O)NC(C)(CO)CC(F)F)c2c1` (single isomer, unassigned) [Cpd 037 - En2], the IC50 was < 1 µM.
As to `Cc1ccc(COc2ccn3nc(C)c(C(=O)NC(C)(CO)C(N)=O)c3c2)cn1` (single isomer, unassigned) [Cpd 021 - En2], the IC50 is > 20 µM.
For the molecule `Cc1nn2ccc(OCc3ccccn3)cc2c1C(=O)NCC(O)CC(F)(F)F` (single isomer, unassigned) [Cpd 081 - En2], the IC50 lay in the range of 1 to 20 µM.
As for `CNC(=O)C(CO)NC(=O)c1c(C)nn2ccc(OCc3ccccc3F)cc12` (single isomer, unassigned) [Cpd 009 - En2], the IC50 was > 20 µM.
`Cc1nn2ccc(OCc3cc(F)ccc3F)cc2c1C(=O)NC(C)(CO)C(N)=O` (single isomer, unassigned) [Cpd 030 - En2] registered an IC50 of 1 to 20 µM.
